Measured values: patent publication US20080125475A1 (priority 2006, published 2008)
“Also recorded” adds a separate entry of the source.

Experiments:
rats = conditions: rat, in vivo
Sprague-Dawley rats = conditions: rat, in vivo
rat = conditions: in vivo

Structure (SMILES) | efficacy once neuropathy has developed compared with naive/sham operated animals (rats) | course of antihyperalgesic and antinociceptive action over the investigation period (Sprague-Dawley rats) | separation of anti-hyperalgesic and antinociceptive action (rat)
CN1CC[C@]23c4c5ccc(O)c4O[C@H]2[C@@H](O)C=C[C@H]3[C@H]1C5 [Compound B3, morphine] | efficacy of morphine declines; also recorded: comparatively distinctly less | slightly declining antihyperalgesic action and an unchanging antinociceptive action; also recorded: slight decline in the antihyperalgesic action or a constant antinociceptive action | 
CC(C)C[C@H](CN)CC(=O)O [pregabalin] |  |  | anti-hyperalgesic action is first to be observed in a dose range in which an antinociceptive action also emerges in the control group; also recorded: efficacy against diabetic polyneuropathy pain only in a dose range in which an antinociceptive effect is also to be observed
